Measured values: patent publication US6936585B2, “Corticotropin releasing factor 2 receptor agonists” (priority 2002, dated 2005)

Tests used:
[1] = target: T1, CRF2R (Homo sapiens, UniProt Q13324); assay: CRF2R agonist activation (EC50 / Emax), called comparative CRF binding; assay type: cell-based; conditions: for Emax: read-out: CRF2R Emax
T1 sequence (Q13324 1-411): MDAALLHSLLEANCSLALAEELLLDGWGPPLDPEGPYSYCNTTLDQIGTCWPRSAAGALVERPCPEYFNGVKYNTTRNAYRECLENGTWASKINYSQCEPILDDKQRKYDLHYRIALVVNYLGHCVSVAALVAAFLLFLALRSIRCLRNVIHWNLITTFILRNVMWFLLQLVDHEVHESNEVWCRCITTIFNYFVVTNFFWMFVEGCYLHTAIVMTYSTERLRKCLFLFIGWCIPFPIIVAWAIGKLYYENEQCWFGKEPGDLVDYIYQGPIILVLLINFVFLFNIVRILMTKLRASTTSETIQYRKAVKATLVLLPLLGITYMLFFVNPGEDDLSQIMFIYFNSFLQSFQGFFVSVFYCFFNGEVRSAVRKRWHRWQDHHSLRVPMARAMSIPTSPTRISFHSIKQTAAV
Summary of the method: (§1)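 Read-out is Gαs-driven cAMP induction, quantified directly in lysates or through CRE-reporter gene expression, after treating CRF1R- or CRF2R-expressing cells with peptide. Vehicle-treated cells serve as the comparison.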

[2] = target: T2, CRF1R (Homo sapiens, UniProt P34998); assay: CRF1R agonist activation (EC50 / Emax), called comparative CRF binding; assay type: cell-based; conditions: for Emax: read-out: CRF1R Emax; for EC50: CRF1R EC50
T2 sequence (P34998 24-415): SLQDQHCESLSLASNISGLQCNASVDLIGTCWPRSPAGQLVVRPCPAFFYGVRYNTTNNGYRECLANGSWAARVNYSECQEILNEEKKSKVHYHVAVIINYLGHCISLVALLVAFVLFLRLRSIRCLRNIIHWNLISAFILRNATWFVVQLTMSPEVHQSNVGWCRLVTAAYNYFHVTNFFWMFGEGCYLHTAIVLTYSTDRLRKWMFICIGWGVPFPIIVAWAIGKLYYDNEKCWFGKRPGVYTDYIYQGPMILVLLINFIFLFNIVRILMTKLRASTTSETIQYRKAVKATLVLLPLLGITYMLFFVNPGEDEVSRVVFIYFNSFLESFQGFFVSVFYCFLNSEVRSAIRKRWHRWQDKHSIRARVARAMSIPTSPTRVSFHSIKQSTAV
Summary of the method: as §1

SMILES | Emax [1] [%] | Emax [2] [%] | EC50 [1] [nM] | EC50 [2] [nM]
CC[C@H](C)[C@H](NC(=O)[C@H](CCCNC(=N)N)NC(=O)[C@H](C)NC(=O)[C@H](CC(N)=O)NC(=O)[C@@H](NC(=O)[C@@H](NC(=O)[C@H](C)NC(=O)[C@H](CCC(N)=O)NC(=O)[C@H](CCC(N)=O)NC(=O)[C@H](CCCCN)NC(=O)[C@H](CCC(=O)O)NC(=O)[C@H](CCCCN)NC(=O)[C@H](CCC(=O)O)NC(=O)[C@H](CCC(N)=O)NC(=O)[C@H](CCCCN)NC(=O)[C@H](CCC(=O)O)NC(=O)[C@@H](NC(=O)[C@H](CCC(=O)O)NC(=O)[C@@H](NC(=O)[C@H](CCSC)NC(=O)[C@H](CCCCN)NC(=O)[C@H](CCCNC(=N)N)NC(=O)[C@H](CC(C)C)NC(=O)[C@H](CC(C)C)NC(=O)[C@H](CCC(N)=O)NC(=O)[C@@H](NC(=O)[C@@H]1CCCN1C(=O)[C@H](CC(C)C)NC(=O)[C@H](CC(=O)O)NC(=O)[C@@H](NC(=O)[C@H](CO)NC(=O)[C@@H](NC(=O)[C@@H]1CCCN1C(=O)[C@@H]1CCCN1C(=O)CNC(=O)[C@@H]1CCC(=O)N1)[C@@H](C)CC)[C@@H](C)CC)[C@@H](C)CC)[C@@H](C)CC)[C@@H](C)CC)[C@@H](C)O)[C@@H](C)O)C(=O)N[C@@H](CC(C)C)C(=O)N[C@@H](C)C(=O)N[C@@H](CCCNC(=N)N)C(=O)N[C@H](C(N)=O)C(C)C [compound 150] | 70.5 | 5.7 | – | –
CC[C@H](C)[C@H](NC(=O)[C@H](CCCNC(=N)N)NC(=O)[C@H](C)NC(=O)[C@H](CC(N)=O)NC(=O)[C@@H](NC(=O)[C@@H](NC(=O)[C@H](C)NC(=O)[C@H](CCC(N)=O)NC(=O)[C@H](CCC(N)=O)NC(=O)[C@H](CCCCN)NC(=O)[C@H](CCC(=O)O)NC(=O)[C@H](CCCCN)NC(=O)[C@H](CCC(=O)O)NC(=O)[C@H](CCC(N)=O)NC(=O)[C@H](CCCCN)NC(=O)[C@H](CCC(=O)O)NC(=O)[C@@H](NC(=O)[C@H](CCC(=O)O)NC(=O)[C@@H](NC(=O)[C@@H](NC(=O)[C@H](CCCCN)NC(=O)[C@H](CCCNC(=N)N)NC(=O)[C@H](CC(C)C)NC(=O)[C@H](CC(C)C)NC(=O)[C@H](CCC(N)=O)NC(=O)[C@H](CC(C)C)NC(=O)[C@@H]1CCCN1C(=O)[C@H](CC(C)C)NC(=O)[C@H](CC(=O)O)NC(=O)[C@@H](NC(=O)[C@H](CO)NC(=O)[C@@H](NC(=O)[C@@H]1CCCN1C(=O)[C@@H]1CCCN1C(=O)CNC(=O)[C@@H]1CCC(=O)N1)[C@@H](C)CC)[C@@H](C)CC)C(C)C)[C@@H](C)CC)[C@@H](C)CC)[C@@H](C)O)[C@@H](C)O)C(=O)N[C@@H](CC(C)C)C(=O)N[C@@H](C)C(=O)N[C@@H](CCCNC(=N)N)C(=O)N[C@H](C(N)=O)C(C)C [compound 320] | 100 | 68.8 | – | –
CC[C@H](C)[C@H](NC(=O)[C@@H](NC(=O)[C@H](C)NC(=O)[C@H](CC(C)C)NC(=O)[C@H](CC(C)C)NC(=O)[C@H](CC(C)C)NC(=O)[C@H](C)NC(=O)[C@H](CC(N)=O)NC(=O)[C@H](CC(N)=O)NC(=O)[C@H](C)NC(=O)[C@H](C)NC(=O)[C@H](CCC(N)=O)NC(=O)[C@H](CCC(N)=O)NC(=O)[C@H](CCCCN)NC(=O)[C@H](CCC(=O)O)NC(=O)[C@H](CCCCN)NC(=O)[C@H](CCC(=O)O)NC(=O)[C@H](CCC(N)=O)NC(=O)[C@H](CCCCN)NC(=O)[C@H](CCC(=O)O)NC(=O)[C@@H](NC(=O)[C@H](CCC(=O)O)NC(=O)[C@@H](NC(=O)[C@H](CC(C)C)NC(=O)[C@H](CC(C)C)NC(=O)[C@H](CCCNC(=N)N)NC(=O)[C@H](CC(C)C)NC(=O)[C@H](CC(C)C)NC(=O)[C@H](CCC(N)=O)NC(=O)[C@H](Cc1ccccc1)NC(=O)[C@@H]1CCCN1C(=O)[C@H](CC(C)C)NC(=O)[C@H](CC(=O)O)NC(=O)[C@@H](NC(=O)[C@H](CO)NC(=O)[C@@H](NC(=O)[C@@H]1CCCN1C(=O)[C@@H]1CCCN1C(=O)CNC(=O)[C@@H]1CCC(=O)N1)[C@@H](C)CC)[C@@H](C)CC)[C@@H](C)CC)[C@@H](C)CC)[C@@H](C)O)C(N)=O [compound 360] | 93 | 100 | – | –
CC[C@H](C)[C@H](NC(=O)[C@@H](NC(=O)[C@H](CC(=O)O)NC(=O)[C@H](CC(C)C)NC(=O)[C@H](CC(C)C)NC(=O)[C@H](CC(C)C)NC(=O)[C@H](CCCNC(=N)N)NC(=O)[C@H](CC(N)=O)NC(=O)[C@H](CC(N)=O)NC(=O)[C@H](C)NC(=O)[C@H](C)NC(=O)[C@H](CCC(N)=O)NC(=O)[C@H](CCC(N)=O)NC(=O)[C@H](CCCCN)NC(=O)[C@H](CCC(=O)O)NC(=O)[C@H](CCCCN)NC(=O)[C@H](CCC(=O)O)NC(=O)[C@H](CCC(N)=O)NC(=O)[C@H](CCCCN)NC(=O)[C@H](CCC(=O)O)NC(=O)[C@@H](NC(=O)[C@H](CCC(=O)O)NC(=O)[C@@H](NC(=O)[C@H](CCSC)NC(=O)[C@H](CCCCN)NC(=O)[C@H](CCCNC(=N)N)NC(=O)[C@H](CC(C)C)NC(=O)[C@H](CC(C)C)NC(=O)[C@H](Cc1c[nH]cn1)NC(=O)[C@H](Cc1c[nH]c2ccccc12)NC(=O)[C@@H]1CCCN1C(=O)[C@H](CC(C)C)NC(=O)[C@H](CC(=O)O)NC(=O)[C@@H](NC(=O)[C@H](CO)NC(=O)[C@@H](NC(=O)[C@@H]1CCCN1C(=O)[C@@H]1CCCN1C(=O)CNC(=O)[C@@H]1CCC(=O)N1)[C@@H](C)CC)[C@@H](C)CC)[C@@H](C)CC)[C@@H](C)CC)[C@@H](C)O)C(N)=O [compound 209] | 93 | 80 | 7.4 | 26.4
CC[C@H](C)[C@H](NC(=O)[C@@H](NC(=O)[C@H](C)NC(=O)[C@H](CC(C)C)NC(=O)[C@H](CC(C)C)NC(=O)[C@H](CC(C)C)NC(=O)[C@H](C)NC(=O)[C@H](CC(N)=O)NC(=O)[C@H](CC(N)=O)NC(=O)[C@H](C)NC(=O)[C@H](C)NC(=O)[C@H](CCC(N)=O)NC(=O)[C@H](CCC(N)=O)NC(=O)[C@H](CCCCN)NC(=O)[C@H](CCC(=O)O)NC(=O)[C@H](CCCCN)NC(=O)[C@H](CCC(=O)O)NC(=O)[C@H](CCC(N)=O)NC(=O)[C@H](CCCCN)NC(=O)[C@H](CCC(=O)O)NC(=O)[C@@H](NC(=O)[C@H](CCC(=O)O)NC(=O)[C@@H](NC(=O)[C@H](CCSC)NC(=O)[C@H](CCCCN)NC(=O)[C@H](CCCNC(=N)N)NC(=O)[C@H](CC(C)C)NC(=O)[C@H](CC(C)C)NC(=O)[C@H](Cc1ccc(O)cc1)NC(=O)[C@H](CC(C)C)NC(=O)[C@@H]1CCCN1C(=O)[C@H](CC(C)C)NC(=O)[C@H](CC(=O)O)NC(=O)[C@@H](NC(=O)[C@H](CO)NC(=O)[C@@H](NC(=O)[C@@H]1CCCN1C(=O)[C@@H]1CCCN1C(=O)CNC(=O)[C@@H]1CCC(=O)N1)[C@@H](C)CC)[C@@H](C)CC)[C@@H](C)CC)[C@@H](C)CC)[C@@H](C)O)C(N)=O [compound 245] | 93 | 100 | – | –
CC[C@H](C)[C@H](NC(=O)[C@H](CCCNC(=N)N)NC(=O)[C@H](C)NC(=O)[C@H](CC(N)=O)NC(=O)[C@@H](NC(=O)[C@@H](NC(=O)[C@H](C)NC(=O)[C@H](CCC(N)=O)NC(=O)[C@H](CCC(N)=O)NC(=O)[C@H](CCCCN)NC(=O)[C@H](CCC(=O)O)NC(=O)[C@H](CCCCN)NC(=O)[C@H](CCC(=O)O)NC(=O)[C@H](CCC(N)=O)NC(=O)[C@H](CCCCN)NC(=O)[C@H](CCC(=O)O)NC(=O)[C@@H](NC(=O)[C@H](CCC(=O)O)NC(=O)[C@@H](NC(=O)[C@H](CCSC)NC(=O)[C@H](CCCCN)NC(=O)[C@H](CCCNC(=N)N)NC(=O)[C@H](CC(C)C)NC(=O)[C@H](CC(C)C)NC(=O)[C@H](Cc1c[nH]cn1)NC(=O)[C@H](Cc1ccccc1)NC(=O)[C@@H]1CCCN1C(=O)[C@H](CC(C)C)NC(=O)[C@H](CC(=O)O)NC(=O)[C@@H](NC(=O)[C@H](CO)NC(=O)[C@@H](NC(=O)[C@@H]1CCCN1C(=O)[C@@H]1CCCN1C(=O)CNC(=O)[C@@H]1CCC(=O)N1)[C@@H](C)CC)[C@@H](C)CC)[C@@H](C)CC)[C@@H](C)CC)[C@@H](C)O)[C@@H](C)O)C(=O)N[C@@H](CC(C)C)C(=O)N[C@@H](C)C(=O)N[C@@H](CCCNC(=N)N)C(=O)N[C@H](C(N)=O)C(C)C [compound 146] | 84.5 | 100 | 8.2 | 103
